Compound activity as filed in PubChem.
Yeast UUG start: modulators of yeast start codon fidelity, primary screen, whole organism, S. cerevisiae, single point, plate reader. S. cerevisiae UUG-firefly luciferase reporter, luminescence/redox ratio. activity score, % at 18.7 µM. hit rate 0.13% among 350,000;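 active = replicate mean at a twofold rise or more, about +100% in these data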;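 also: firefly luciferase made from a UUG start codon reports start codon fidelity; reporter light over untreated wells divided by growth signal over untreated wells; some hits fall short of that in this replicate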
LGR2 antag: inhibitors of bursicon-induced LGR2 CRE-luciferase signal, primary screen, cell-based, HEK293, CRE-luciferase reporter, bursicon stimulation; hit rate 0.35% among 380,000; Drosophila bursicon receptor LGR2 (rickets); AID 720647, 2013; bursicon-stimulated, 4 h; inhibition, % at 9.99 µM;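 active means drop in luminescence signal, shown as inhibition above about 50% in the replicate tests, limit read from the data, passing the limit was not always enough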;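 further: agonist challenge used bursicon conditioned medium at about half maximal strength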
PglD DTNB: C. jejuni PglD acetyltransferase inhibitors, primary screen, biochemical, DTNB colorimetric, single point; purified PglD enzyme, DTNB colorimetric CoA detection; inhibition, % at 12.5 µM; hit rate 0.098% among 360,000; AID 602405, 2012; in the data active means inhibition above about 16%, passing the limit was not always enough
F508del corr: F508del CFTR correction, initial screen, CFBE line, single point | CFBE cells, YFP halide quenching; stimulated with forskolin plus potentiator P3; % fluorescence drop versus neutral controls | activity (quench increase), % at 7.58 µM | hit rate 0.36% among 350,000;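 active means mean added fluorescence quench of at least 8% versus neutral control, with both replicates also reaching 8%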;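 further: cells transiently co-express mutant CFTR-F508del with the halide-sensitive YFP; corrector assay measuring rescue of mutant channel to the surface after 24 h compound exposure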
miR-122 sensor: miR-122 Renilla sensor signal increase in Huh7, primary screen, miR-122 inhibitor project, cell-based, single point, plate reader; Huh7 miR-122 Renilla luciferase sensor, 48 h; neutral wells = 0, positive control = 100; activation (reporter increase), % at 12.5 µM; hit rate 0.3% among 340,000; AID 602342, 2012;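 active means mean replicate activation score at least 90 and every replicate individually at or above 90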;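 further: higher luciferase means less miR-122 activity so hits act as miR-122 inhibitors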
EWS-Fli block: EWS/Fli-driven NR0B1 reporter inhibitors, primary screen, A673 cells, NR0B1 luciferase, luminescence, MLPCN library | inhibition, % at 12.6 µM | viability-normalised | hit rate 0.67% among 350,000;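 active means mean inhibition of at least 50% after viability correction, with every replicate also passing that limit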;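 further: firefly luciferase signal divided by Alamar Blue viability fluorescence both relative to DMSO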
Numbers stand for hits; - = inactive; . = no result given. Compounds with a hit are over-represented: about 1.3% of the library has one in this group of screens.

SMILES	Yeast UUG start	LGR2 antag	PglD DTNB	F508del corr	miR-122 sensor	EWS-Fli block
CN(CC(=O)Nc1ccc(Cl)c(C(F)(F)F)c1)C(=O)c1ccc(S(=O)(=O)N2CCOCC2)cc1	-	-	-	-	-	55
N#CCCCC#Cc1ccc2c(c1)COc1c3ccccc3nn1-2	-	98	-	-	-	67
Cc1ncoc1C(=O)Nc1ccccc1C(N)=O	-	-	-	.	-	.
O=C(C(=O)N(Cc1ccccc1)Cc1ccccc1)c1c(-c2ccccc2)[nH]c2ccccc12	-	-	-	-	100	-
CCN1/C(=C\c2ccc3cc(C)ccc3[n+]2CC)Sc2cc(C)c(C)cc21	-	-	-	62	-	57
CCN1/C(=C/c2ccc3cccc(C)c3[n+]2CC)Sc2ccccc21	-	-	-	.	-	.
CCN1/C(=C/c2ccc3cc(C)cc(C)c3[n+]2CC)Sc2cc(C)ccc21	-	82	-	65	-	76
CO[C@@H]1CC[C@H]2CCOc3ccc(C#N)cc3C(=O)N(C)CCCC(=O)N(C)C[C@@H]1O2	.	-	-	.	.	-
Cc1cccc(C)c1NC(=O)C(c1ccccc1F)n1c(=O)c(-c2ccco2)nc2ccccc21 (configuration not stated)	.	-	.	-	.	-
COc1ccc(CNS(=O)(=O)c2ccc3c(c2)NC(=O)CS3)cc1	-	-	-	-	.	-
COc1cc(NC(=O)c2ccccc2Cl)c2ncccc2c1	-	-	-	-	-	58
CN(C)Cc1ccccc1CNC(=O)c1cccc(S(=O)(=O)Nc2ccc3c(c2)OCO3)c1	-	-	-	-	117	-
COc1ccc(-c2ccc(SCC(=O)N3c4ccccc4CC3C)nn2)cc1OC (configuration not stated)	-	.	-	.	-	.
Cc1cc(C)n2c(Nc3ccc4c(c3)OCCO4)c(-c3cc4ccccc4o3)nc2n1	.	92	.	-	.	-
CCSc1nnc(N2C(=O)C(O)=C(C(=O)c3ccco3)C2c2cccc(OC)c2)s1 (configuration not stated)	-	-	-	9.3	-	-
CCOc1cccc(C2C(C(=O)c3ccco3)=C(O)C(=O)N2c2nnc(C)s2)c1 (configuration not stated)	-	-	-	-	-	-
O=C(Nc1ccc(Br)cn1)c1cccc2ccccc12	-	-	-	14	.	-
COc1c(C(=O)Nc2ccc(Br)cn2)ccc2ccccc12	-	-	-	-	.	-
CCOC(=O)c1ccc(NS(=O)(=O)c2cc(C)ccc2OC)cc1	-	.	-	.	373	.
COc1ccc(NS(=O)(=O)c2cc(NC(=O)c3ccc(F)cc3)ccc2OC)cc1	-	-	-	.	108	.
COc1ccc(OC)c(S(=O)(=O)Nc2ccc(C(N)=O)cc2)c1	-	-	-	-	-	-
COc1ccc(OC)c(S(=O)(=O)Nc2ccc(C(C)=O)cc2)c1	-	.	-	.	100	.
CO[C@@H]1CN(C)C(=O)c2cc(NC(C)=O)ccc2OC[C@@H](C)N(C(=O)C2CC2)C[C@H]1C	-	.	-	-	-	-
C/C(=N\NC(=O)c1c([N+](=O)[O-])c(C)nn1C)c1ccc(NC(=O)C2CCCC2)cc1	-	-	-	-	-	52
C/C(=N\NC(=O)c1c(Br)c(C)nn1C)c1cccc(NC(=O)C2CCC2)c1	-	.	-	.	-	.
SMILES	Yeast UUG start	LGR2 antag	PglD DTNB	F508del corr	miR-122 sensor	EWS-Fli block
C/C(=N\NC(=O)c1c(Cl)c(C)nn1C)c1ccc(NC(=O)C2CCC2)cc1	-	-	-	11	-	-
NC(=O)c1c(NC(=O)c2ccccc2F)sc2c1CCCC2	-	-	-	-	-	-
Cn1cnc(S(=O)(=O)NC[C@H]2CC[C@H]3[C@H](CN3Cc3nccs3)O2)c1	.	.	.	-	.	-
CCC[C@H]1CC(=O)C=C(c2ccc(OC)cc2)ON1C(=O)OC(C)(C)C	-	-	-	-	.	-
COC(=O)c1c(NC(C)=O)sc(Cc2ccccc2)c1C	-	.	-	.	153	.
COC(=O)c1c(NC(=O)c2ccccc2)sc(Cc2ccccc2)c1C	-	.	-	.	-	.
COc1cccc(OC)c1C(=O)NCCc1ccccc1	.	-	.	-	.	-
COC(=O)c1c(N)sc(C(=O)NCCc2ccccc2)c1C	-	98	-	-	-	83
O=C(OCc1nc2ccccc2s1)c1ccco1	-	-	-	-	-	-
O=C(NC1CCCC1)C(c1ccccc1F)N(C(=O)Cc1cccs1)c1ccc2c(c1)OCCO2 (configuration not stated)	.	-	.	-	172	-
CCCCOc1ccccc1C1CC(=O)NC2=C1C(=O)CCC2 (configuration not stated)	-	.	-	.	109	.
Cc1nc2ccc(S(=O)(=O)Nc3ccccc3C)cc2s1	.	-	.	-	127	-
O=C(O)c1ccccc1C(=O)OC1CCCC2CCCC21 (configuration not stated)	.	-	.	-	.	-
CC1C2CCC(C2)C1OC(=O)c1ccccc1C(=O)O (configuration not stated)	.	-	.	9.4	.	-
CCN(CC)S(=O)(=O)c1cc(NS(=O)(=O)c2cccs2)ccc1C	-	-	-	-	-	-
CCN(CC)S(=O)(=O)c1cc(NS(=O)(=O)c2cc(Cl)ccc2Cl)ccc1C	-	-	-	-	392	-
N#Cc1c(-c2ccccc2)c(-c2ccccc2)nn(CC(=O)NNC(=O)Nc2ccc(Cl)c(Cl)c2)c1=O	-	.	-	.	-	.
N#Cc1c(-c2ccc(F)cc2)c(-c2ccc(F)cc2)nn(CCO)c1=O	.	-	.	18	-	-
O=C(/C=C/c1ccc(Cl)c([N+](=O)[O-])c1)Nc1cccc(NC(=O)c2ccco2)c1	.	57	.	-	-	-
O=C(/C=C/c1cccc([N+](=O)[O-])c1)c1ccco1	-	-	-	-	.	58
O=C(Nc1ccc(Br)c(Cl)c1)c1ccco1	-	.	-	.	144	.
O=C(/C=C/c1ccc(Cl)c([N+](=O)[O-])c1)Nc1ccc(NC(=O)c2ccco2)cc1	.	-	.	-	-	-
COc1ccc(/C=C/C(=O)c2ccc([N+](=O)[O-])o2)cc1	-	-	-	-	-	-
O=C(Nc1ccc(NC(=O)c2ccco2)c(Cl)c1)c1ccccc1	.	-	.	-	.	-
O=C(/C=C/c1cccc([N+](=O)[O-])c1)Nc1cccc(NC(=O)c2ccco2)c1	.	-	.	-	.	-
Cc1cccc(/C=C/C(=O)c2ccc([N+](=O)[O-])o2)c1	-	101	-	-	.	63
Cc1ccc(C(=O)NCC(=O)N2CCCN(S(=O)(=O)c3ccc(C)cc3)CC2)cc1	.	-	.	-	.	-
